Laboratory results from patent US20230340011A1 (Asteroid Therapeutics, priority 2022, published 2023).

Protein sequences, listed by entry. Tags and fused reporters are not part of them.
UniProt P55055, whole entry: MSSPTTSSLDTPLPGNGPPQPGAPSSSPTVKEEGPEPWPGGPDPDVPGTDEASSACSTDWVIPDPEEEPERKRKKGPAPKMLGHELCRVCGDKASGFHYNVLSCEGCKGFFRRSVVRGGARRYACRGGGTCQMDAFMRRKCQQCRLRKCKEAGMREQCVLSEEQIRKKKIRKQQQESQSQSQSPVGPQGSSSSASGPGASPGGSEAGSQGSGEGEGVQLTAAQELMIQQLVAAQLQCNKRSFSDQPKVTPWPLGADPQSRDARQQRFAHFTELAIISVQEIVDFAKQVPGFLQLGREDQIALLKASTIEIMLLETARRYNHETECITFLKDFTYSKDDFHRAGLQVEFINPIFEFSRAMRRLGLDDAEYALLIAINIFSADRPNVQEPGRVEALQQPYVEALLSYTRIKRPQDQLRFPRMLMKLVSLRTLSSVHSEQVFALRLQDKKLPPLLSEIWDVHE

Tests used:
SREBP-2 [1] = biological target: T1, SREBP-2 (Homo sapiens (Human), UniProt Q12772); test: In vitro assay SREBP-2: PathHunter U2OS SREBP-2 Nuclear Translocation Cell Line, U18666A-stimulated; type: cell-based; conditions: read-out: SREBP-2 IC50
LXRβ [2] = biological target: T2, LXRβ (Homo sapiens (Human), UniProt P55055); test: In vitro assay LXRβ: PathHunter NHR CHO cells, LXRβ / Steroid Receptor Co-activator Peptide enzyme fragment complementation; type: cell-based
How it was run: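 Co-activator recruitment measured by chemiluminescence after signal generation. The CHO line carries full-length human LXRβ tagged with ProLink and an SRCP–enzyme acceptor fusion in the nucleus; cells sat overnight at 37° C before testing, in charcoal-dextran filtered serum medium with 1% final vehicle.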

LXRβ [3] = biological target: T2, LXRβ; test: LXRβ PPI (category A-D, Tables 1 and 3); type: biochemical; conditions: Table 3, trans-AB examples
SREBP-2 [4] = biological target: T1, SREBP-2; test: SREBP-2 IC50 (category A-D, Tables 1 and 3); type: cell-based; conditions: Table 3, trans-AB examples
[5] = PathHunter NHR CHO cells, full-length human LXRβ and SRCP, chemiluminescent signal, read-out: LXRβ PPI

With C[C@H](CCC(=O)N1CCSCC1)[C@H]1CC[C@H]2[C@@H]3CC=C4C[C@@H](O)CC[C@]4(C)[C@H]3CC[C@]12C [Example 8, (R)-4-((3S,8S,9S,10R,13R,14S,17R)-3-hydroxy-10,13-dimethyl-2,3,4,7,8,9,10,11,12,13,14,15,16,17-tetradecahydro-1H-cyclopenta[a]phenanthren-17-yl)-1-thiomorpholinopentan-1-one] the IC50 (SREBP-2 [1]; PathHunter U2OS SREBP-2 nuclear translocation cells, U18666A 10 μM, overnight (16 hours)) was under 250 nM, the EC50 (LXRβ [2]) was 250 to 1000 nM and the “LXRβ PPI” value (LXRβ [3]) was “D (>10000 nM)”. It also gave an IC50 (SREBP-2 [4]) of 250 to 1000 nM.

With “(1R,4r)-4-((R)-4-((3S,8S,9S,10R,13R,14S,17R)-3-hydroxy-10,13-dimethyl-2,3,4,7,8,9,10,11,12,13,14,15,16,17-tetradecahydro-1H-cyclopenta[a]phenanthren-17-yl)-N-methylpentanamido)-N,N-dimethylcyclohexane-1-carboxamide [Example 296]” the IC50 (SREBP-2 [1]) was under 250 nM and the EC50 (LXRβ [2]; [5]) was over 10000 nM.

In the case of “(R)-4-((3S,8S,9S,10R,13R,14S,17R)-3-hydroxy-10,13-dimethyl-2,3,4,7,8,9,10,11,12,13,14,15,16,17-tetradecahydro-1H-cyclopenta[a]phenanthren-17-yl)-N-methoxy-N-(3,3,3-trifluoropropyl) pentalamide [Example 65]”, the IC50 (SREBP-2 [1]) is reported as under 250 nM, the EC50 (LXRβ [2]; [5]) is reported as 1000 to 10000 nM and the “LXRβ PPI” value (LXRβ [3]) is reported as “B (250 nM-1000 nM)”. The IC50 (SREBP-2 [4]) was under 250 nM.

Read-outs that look alike come from different tables or passages of the source.
